Results published in patent US10071995B2, “Substituted oxopyridine derivatives” (BAYER PHARMA AKTIENGESELLSCHAFT, priority 2014, dated 2018).

The chains behind the UniProt entries cited, without tags or fusion partners. Residues count along the entry.
UniProt P03951, 19-387 partner: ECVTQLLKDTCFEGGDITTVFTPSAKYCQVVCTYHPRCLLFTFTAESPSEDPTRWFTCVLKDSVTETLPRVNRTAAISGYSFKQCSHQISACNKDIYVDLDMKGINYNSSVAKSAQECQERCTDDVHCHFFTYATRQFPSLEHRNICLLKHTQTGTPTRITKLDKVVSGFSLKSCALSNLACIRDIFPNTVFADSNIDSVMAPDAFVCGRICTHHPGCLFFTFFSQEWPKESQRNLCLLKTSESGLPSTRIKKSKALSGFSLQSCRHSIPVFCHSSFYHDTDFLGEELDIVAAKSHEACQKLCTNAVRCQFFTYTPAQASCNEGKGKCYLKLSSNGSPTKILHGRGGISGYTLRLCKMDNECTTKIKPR
UniProt P03951, 388-625: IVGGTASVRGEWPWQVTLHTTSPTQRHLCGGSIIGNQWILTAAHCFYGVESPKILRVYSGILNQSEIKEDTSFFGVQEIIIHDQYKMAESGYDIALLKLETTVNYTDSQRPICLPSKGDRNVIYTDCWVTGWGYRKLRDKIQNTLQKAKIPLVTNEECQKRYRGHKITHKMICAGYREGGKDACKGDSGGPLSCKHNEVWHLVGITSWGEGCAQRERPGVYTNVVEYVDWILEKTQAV
UniProt P03952, 20-390 partner: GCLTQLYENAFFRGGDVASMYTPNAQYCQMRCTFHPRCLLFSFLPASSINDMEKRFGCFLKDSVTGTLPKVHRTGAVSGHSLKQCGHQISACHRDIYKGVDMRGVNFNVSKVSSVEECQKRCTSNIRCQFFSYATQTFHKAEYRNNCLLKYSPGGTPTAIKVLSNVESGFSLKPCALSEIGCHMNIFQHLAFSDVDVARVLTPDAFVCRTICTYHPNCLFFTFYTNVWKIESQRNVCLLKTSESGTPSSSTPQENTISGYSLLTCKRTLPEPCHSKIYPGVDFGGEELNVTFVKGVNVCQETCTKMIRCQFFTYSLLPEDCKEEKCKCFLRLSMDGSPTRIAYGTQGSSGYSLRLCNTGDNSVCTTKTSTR
UniProt P03952, 391-638: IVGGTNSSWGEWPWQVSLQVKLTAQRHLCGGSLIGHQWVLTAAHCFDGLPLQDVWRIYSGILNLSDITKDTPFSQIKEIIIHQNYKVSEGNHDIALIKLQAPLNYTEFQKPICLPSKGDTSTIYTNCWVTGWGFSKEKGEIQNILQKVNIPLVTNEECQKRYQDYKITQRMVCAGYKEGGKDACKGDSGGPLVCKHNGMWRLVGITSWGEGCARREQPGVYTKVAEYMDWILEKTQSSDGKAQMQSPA

Legend:
[1] = target: human factor XIa (Homo sapiens (Human), UniProt P03951); experiment: Measurement of FXIa inhibition (fluorogenic peptide substrate); assay type: biochemical; conditions: factor XIa from Kordia, substrate Boc-Glu(OBzl)-Ala-Arg-AMC, 22° C., 30 min
Experimental: (§1) The factor XIa inhibition of the substances according to the invention is determined using a biochemical test system which utilizes the reaction of a peptidic factor XIa substrate to determine the enzymatic activity of human factor XIa. Here, factor XIa cleaves from the peptic factor XIa substrate the C-terminal aminomethylcoumarin (AMC), the fluorescence of which is measured. The determinations are carried out in microtitre plates.
Test substances are dissolved in dimethyl sulphoxide and serially diluted in dimethyl sulphoxide (3000 μM to 0.0078 μM; resulting final concentrations in the test: 50 μM to 0.00013 μM). 1 μl of the diluted substance solutions is placed into each of the wells of white microtitre plates from Greiner (384 wells). 20 μl of assay buffer (50 mM of Tris/HCl pH 7.4; 100 mM of sodium chloride; 5 mM of calcium chloride; 0.1% of bovine serum albumin) and 20 μl of factor XIa from Kordia (0.45 nM in assay buffer) are then added successively. After 15 min of incubation, the enzyme reaction is started by addition of 20 μl of the factor XIa substrate Boc-Glu(OBzl)-Ala-Arg-AMC dissolved in assay buffer (10 μM in assay buffer) from Bachem, the mixture is incubated at room temperature (22° C.) for 30 min and fluorescence is then measured (excitation: 360 nm, emission: 460 nm). The measured emissions of the test batches with test substance are compared to those of control batches without test substance (only dimethyl sulphoxide instead of test substance in dimethyl sulphoxide), and IC50 values are calculated from the concentration/activity relationships.

[2] = target: human plasma kallikrein (Homo sapiens (Human), UniProt P03952); experiment: Determination of the plasma kallikrein activity (fluorogenic peptide substrate); assay type: biochemical; conditions: plasma kallikrein from Kordia, substrate H-Pro-Phe-Arg-AMC, 22° C., 30 min
Experimental: as §1, with “To determine the plasma kallikrein” for “The factor XIa”, “invention,” for “invention is determined using”, “system is used” for “system”, “plasma kallikrein” for “factor XIa”, “plasma kallikrein.” for “factor XIa.”
Test substances are dissolved in dimethyl sulphoxide and serially diluted in dimethyl sulphoxide (3000 μM to 0.0078 μM; resulting final concentrations in the test: 50 μM to 0.00013 μM). 1 μl of the diluted substance solutions is placed into each of the wells of white microtitre plates from Greiner (384 wells). 20 μl of assay buffer (50 mM Tris/HCl pH 7.4; 100 mM sodium chloride solution; 5 mM of calcium chloride solution; 0.1% of bovine serum albumin) and 20 μl of plasma kallikrein from Kordia (0.6 nM in assay buffer) are then added successively. After 15 min of incubation, the enzyme reaction is started by addition of 20 μl of the substrate H-Pro-Phe-Arg-AMC dissolved in assay buffer (10 μM in assay buffer) from Bachem, the mixture is incubated at room temperature (22° C.) for 30 min and fluorescence is then measured (excitation: 360 nm, emission: 460 nm). The measured emissions of the test batches with test substance are compared to those of control batches without test substance (only dimethyl sulphoxide instead of test substance in dimethyl sulphoxide), and IC50 values are calculated from the concentration/activity relationships.

SMILES | IC50 [1] | IC50 [2]
COCCC(C(=O)Nc1ccc(C(N)=O)s1)n1cc(OC)c(-c2cc(Cl)ccc2C#N)cc1=O (racemic) [Example 1, 5-({2-[4-(5-Chloro-2-cyanophenyl)-5-methoxy-2-oxopyridin-1(2H)-yl]-4-methoxybutanoyl}amino)-thiophene-2-carboxamide (racemate)] | 7 nM | 3 nM
COc1cn(C(Cc2ccccn2)C(=O)Nc2cc(F)c(C(N)=O)s2)c(=O)cc1-c1cc(Cl)ccc1C#N (racemic) [Example 3, 5-({2-[4-(5-Chloro-2-cyanophenyl)-5-methoxy-2-oxopyridin-1(2H)-yl]-3-(pyridin-2-yl)propanoyl}-amino)-3-fluorothiophene-2-carboxamide (racemate)] | – | 68 nM
COc1cn(C(Cc2cccnc2)C(=O)Nc2cc(F)c(C(N)=O)s2)c(=O)cc1-c1cc(Cl)ccc1C#N (racemic) [Example 5, 5-({2-[4-(5-Chloro-2-cyanophenyl)-5-methoxy-2-oxopyridin-1(2H)-yl]-3-(pyridin-3-yl)propanoyl}-amino)-3-fluorothiophene-2-carboxamide (racemate)] | 42 nM | 38 nM
COCCC(C(=O)Nc1ccc(C(=O)O)s1)n1cc(OC)c(-c2cc(Cl)ccc2C#N)cc1=O (racemic) [Example 7, 5-({2-[4-(5-Chloro-2-cyanophenyl)-5-methoxy-2-oxopyridin-1(2H)-yl]-4-methoxybutanoyl}amino)-thiophene-2-carboxylic acid (racemate)] | – | 7.6 nM
CNC(=O)c1ccc(NC(=O)C(CCOC)n2cc(OC)c(-c3cc(Cl)ccc3C#N)cc2=O)s1 (racemic) [Example 11, 5-({2-[4-(5-Chloro-2-cyanophenyl)-5-methoxy-2-oxopyridin-1(2H)-yl]-4-methoxybutanoyl}amino)-N-methylthiophene-2-carboxamide (racemate)] | 4.6 nM | 2.7 nM
CNC(=O)c1ccc(NC(=O)C(CCOC)n2cc(OC)c(-c3cc(Cl)ccc3C#N)cc2=O)s1 (single isomer, unassigned; enantiomer 1) [Example 12, 5-({2-[4-(5-Chloro-2-cyanophenyl)-5-methoxy-2-oxopyridin-1(2H)-yl]-4-methoxybutanoyl}amino)-N-methylthiophene-2-carboxamide (enantiomer 1)] | 2.5 nM | 1.7 nM

Now from value to molecule:

IC50 [1] | IC50 [2] | SMILES
4.1 nM | – | COc1cn(C(Cc2ccn(C)n2)C(=O)Nc2ccc(C(N)=O)s2)c(=O)cc1-c1cc(Cl)ccc1C#N (racemic) [Example 13, 5-({2-[4-(5-Chloro-2-cyanophenyl)-5-methoxy-2-oxopyridin-1(2H)-yl]-3-(1-methyl-1H-pyrazol-3-yl)propanoyl}amino)thiophene-2-carboxamide (racemate)]
– | 2.7 nM | CNC(=O)c1ccc(NC(=O)C(Cc2cnco2)n2cc(OC)c(-c3cc(Cl)ccc3C#N)cc2=O)s1 (racemic) [Example 17, 5-({2-[4-(5-Chloro-2-cyanophenyl)-5-methoxy-2-oxopyridin-1(2H)-yl]-3-(1,3-oxazol-5-yl)-propanoyl}amino)-N-methylthiophene-2-carboxamide (racemate)]
– | 6 nM | COc1cn(C(Cc2ccccn2)C(=O)Nc2ccc(C(=O)O)s2)c(=O)cc1-c1cc(Cl)ccc1C#N (racemic) [Example 18, 5-({2-[4-(5-Chloro-2-cyanophenyl)-5-methoxy-2-oxopyridin-1(2H)-yl]-3-(pyridin-2-yl)propanoyl}-amino)thiophene-2-carboxylic acid (racemate)]
